Experimental data as given in patent US20260042762A1 (Kymera Therapeutics, Inc., priority 2018, published 2026).

Key:
[1] = target: T1, MerTK (Mus musculus, UniProt Q60805); assay: MerTK degradation in RAW264 cells (Western blot); type: cell-based; details: RAW264.7, 4 h, read-out: RAW264 Max % MerTK Degradation
T1 construct: endogenous in cells; host or cells: RAW264 cells
T1 sequence (Q60805 19-994): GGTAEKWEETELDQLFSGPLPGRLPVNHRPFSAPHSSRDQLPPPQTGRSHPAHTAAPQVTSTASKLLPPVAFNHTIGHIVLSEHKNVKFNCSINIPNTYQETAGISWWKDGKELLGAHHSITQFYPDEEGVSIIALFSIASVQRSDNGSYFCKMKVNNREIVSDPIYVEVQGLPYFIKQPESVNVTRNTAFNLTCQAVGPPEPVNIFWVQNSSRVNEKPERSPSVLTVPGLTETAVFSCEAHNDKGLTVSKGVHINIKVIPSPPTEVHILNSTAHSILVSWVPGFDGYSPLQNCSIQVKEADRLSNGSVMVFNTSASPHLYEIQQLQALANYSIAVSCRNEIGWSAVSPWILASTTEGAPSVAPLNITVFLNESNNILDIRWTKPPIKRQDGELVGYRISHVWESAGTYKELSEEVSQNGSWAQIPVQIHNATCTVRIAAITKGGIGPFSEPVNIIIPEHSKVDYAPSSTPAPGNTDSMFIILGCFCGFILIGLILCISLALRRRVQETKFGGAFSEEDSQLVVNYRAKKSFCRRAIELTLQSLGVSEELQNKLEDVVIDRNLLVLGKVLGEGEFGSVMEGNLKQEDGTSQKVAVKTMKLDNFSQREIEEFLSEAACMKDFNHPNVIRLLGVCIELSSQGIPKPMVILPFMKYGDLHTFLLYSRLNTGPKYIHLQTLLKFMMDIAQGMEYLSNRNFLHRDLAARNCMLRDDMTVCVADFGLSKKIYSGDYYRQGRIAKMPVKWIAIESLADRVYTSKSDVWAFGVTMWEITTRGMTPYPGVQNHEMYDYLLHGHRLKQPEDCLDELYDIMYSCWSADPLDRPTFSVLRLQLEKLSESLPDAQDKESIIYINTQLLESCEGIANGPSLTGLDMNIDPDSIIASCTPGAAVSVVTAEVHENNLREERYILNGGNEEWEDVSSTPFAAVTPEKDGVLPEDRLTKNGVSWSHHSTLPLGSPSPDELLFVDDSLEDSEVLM
Description: Compounds were reconstituted in DMSO to make 10 mM stock solutions. RAW264 cells were maintained in DMEM medium containing 10% FBS. Cells were seeded into 6-well plates with 2×10^6 cells per well. 2 μL of diluted compounds were added to cells to the final concentration of 0.001-1 μM. After a 4 hour-incubation at 37° C., cells were washed with DPBS (1×) once. Then RIPA lysis buffer with Halt Protease and Phosphatase Inhibitor Cocktail was added directly to the cells and cells were then incubated on ice for 10 min, then lysate was harvested into 1.5 mL Eppendorf tubes and centrifuged at 14,000 rpm for 10 min at 4° C. and the supernatants were collected for Western blots.
(§1) The protein concentration of cell lysates was quantified with Pierce™ BCA Protein Assay Kit. […] BCA working reagents were prepared by mixing BCA reagent A with reagent B in 50: 1 ratio. 200 μL of the BCA working reagents were added to 25 μL of BCA standard or cell lysates in microplate, and mixed thoroughly on a plate shaker for 30 seconds. After incubation at 37° C. for 30 min, the absorbance of samples at 562 nm were measured with EnVision Plate Reader.
Protein lysates were prepared in NuPAGE™ LDS sample buffer and NuPAGE™ sample reducing agent, and incubated at 95° C. for 5 min. […] The proteins were transferred to low fluorescence PVDF membranes using the Trans-Blot Turbo Transfer System. Membranes were then blocked in Odyssey blocking buffer at RT for 1 h followed by primary incubation at 4° C. overnight. The primary antibodies were MerTK goat polyclonal antibody and actin mouse monoclonal antibody. Membranes were washed three times with TBST (1×), and then incubated with IR Dye 800 CW Donkey anti-goat and IR Dye 700 CW Goat anti-mouse secondary antibodies in 1:10,000 dilution at RT for 1 h. The Western blot images were obtained using Odyssey Imaging System.

[2] = target: T2, MerTK (Homo sapiens, UniProt Q12866); assay: MerTk degradation in Jurkat cells (Western blot); type: cell-based; details: 0.001-1 μM, 4 hour-incubation at 37° C., read-out: Jurkat Max % MerTK Degradation
T2 construct: endogenous in cells; host or cells: Jurkat cells
T2 sequence (Q12866 21-999): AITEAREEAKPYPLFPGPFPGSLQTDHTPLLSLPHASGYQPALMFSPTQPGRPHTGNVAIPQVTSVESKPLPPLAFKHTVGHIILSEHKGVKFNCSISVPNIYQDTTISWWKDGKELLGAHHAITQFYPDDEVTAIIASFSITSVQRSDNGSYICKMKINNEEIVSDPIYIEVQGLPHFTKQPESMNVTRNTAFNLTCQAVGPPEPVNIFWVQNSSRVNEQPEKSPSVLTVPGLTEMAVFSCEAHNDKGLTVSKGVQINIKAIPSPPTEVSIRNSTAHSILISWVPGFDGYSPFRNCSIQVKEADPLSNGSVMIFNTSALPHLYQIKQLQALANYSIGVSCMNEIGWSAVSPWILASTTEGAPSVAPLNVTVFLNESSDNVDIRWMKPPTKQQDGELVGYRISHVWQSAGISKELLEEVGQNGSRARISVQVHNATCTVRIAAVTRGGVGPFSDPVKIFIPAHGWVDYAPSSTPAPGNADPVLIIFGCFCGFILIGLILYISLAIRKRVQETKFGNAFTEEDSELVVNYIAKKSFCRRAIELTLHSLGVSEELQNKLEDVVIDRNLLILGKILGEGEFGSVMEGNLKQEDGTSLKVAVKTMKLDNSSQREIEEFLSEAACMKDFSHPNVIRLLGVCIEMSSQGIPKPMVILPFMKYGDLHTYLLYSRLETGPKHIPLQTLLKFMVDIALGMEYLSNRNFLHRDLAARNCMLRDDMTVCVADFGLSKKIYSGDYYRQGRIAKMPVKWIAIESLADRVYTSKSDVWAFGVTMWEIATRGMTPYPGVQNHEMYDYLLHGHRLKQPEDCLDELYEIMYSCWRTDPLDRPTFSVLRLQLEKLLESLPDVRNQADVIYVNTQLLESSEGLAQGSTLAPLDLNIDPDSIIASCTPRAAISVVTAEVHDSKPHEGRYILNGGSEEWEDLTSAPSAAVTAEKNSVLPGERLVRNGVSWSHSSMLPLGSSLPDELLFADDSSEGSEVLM
Description: Compounds were reconstituted in DMSO to make 10 mM stock solutions. […] Cells were seeded into 6-well plates with about 5×10^6 cells per well. 2 μL of diluted compounds were added to cells to the final concentration of 0.001-1 μM. After a 4 hour-incubation at 37° C., cells were collected into 2 mL Eppendorf tubes and centrifuged at 1,000 rpm for 5 min. The cell pellets were washed with DPBS (1×) once and resuspended in 60 μL RIPA lysis buffer with Halt Protease and Phophatase Inhibitor Cocktail. The cells were lysed on ice for 10 min, then centrifuged at 14,000 rpm for 10 min at 4° C. and the supernatants were collected for western blots.
as §1
Protein lysates were prepared in NuPAGE™ LDS sample buffer and NuPAGE™ sample reducing agent, and incubated at 95° C. for 5 min. […] The proteins were transferred to low fluorescence PVDF membranes using the Trans-Blot Turbo Transfer System. […]

Dmax [1] [%]	Dmax [2] [%]	SMILES
> 50		CCCCNc1ncc2c(-c3ccc(S(=O)(=O)N4CCN(C(=O)NCCCOCCCOCCCc5ccc6c(c5)n(C)c(=O)n6C5CCC(=O)NC5=O)CC4)cc3)nn([C@H]3CC[C@H](O)CC3)c2n1 (stereo partly drawn) [I-24, 4-((4-(6-(Butylamino)-1-(trans-4-hydroxycyclohexyl)-1H-pyrazolo[3,4-d]pyrimidin-3-yl)phenyl)sulfonyl)-N-(3-(3-(3-(1-(2,6-dioxopiperidin-3-yl)-3-methyl-2-oxo-2,3-dihydro-1H-benzo[d]imidazol-5-yl)propoxy)propoxy)propyl)piperazine-1-carboxamide]
> 50		CCCCNc1ncc2c(-c3ccc(CN4CCN(CCCC(=O)NCCCOCCCOCCCc5ccc6c(c5)n(C)c(=O)n6C5CCC(=O)NC5=O)CC4)cc3)cn([C@H]3CC[C@H](O)CC3)c2n1 (stereo partly drawn) [I-9, Trans-4-[4-([4-[2-(butylamino)-7-[4-hydroxycyclohexyl]-7H-pyrrolo[2,3-d]pyrimidin-5-yl]phenyl]methyl)piperazin-1-yl]-N-[3-(3-[3-[1-(2,6-dioxopiperidin-3-yl)-3-methyl-2-oxo-2,3-dihydro-1H-1,3-benzodiazol-5-yl]propoxy]propoxy)propyl]butanamide bis(formic acid)]
	< 20	CN1CCN(Cc2ccc(-c3cn([C@H]4CC[C@H](O)CC4)c4nc(NCCC(F)(F)F)ncc34)cc2)CC1 [I-148, Trans-4-(5-[4-[(4-methylpiperazin-1-yl)methyl]phenyl]-2-[(3,3,3-trifluoropropyl)amino]pyrrolo[2,3-d]pyrimidin-7-yl)cyclohexan-1-ol; formic acid]
> 50		CCCCNc1ncc2c(-c3ccc(CNCCCOCCCOCCCc4ccc5c(c4)n(C)c(=O)n5C4CCC(=O)NC4=O)cc3)cn([C@H]3CC[C@H](O)CC3)c2n1 (stereo partly drawn) [I-7, Trans-3-[5-[3-(3-[3-[([4-[2-(butylamino)-7-[4-hydroxycyclohexyl]-7H-pyrrolo[2,3-d]pyrimidin-5-yl]phenyl]methyl)amino]propoxy]propoxy)propyl]-3-methyl-2-oxo-2,3-dihydro-1H-1,3-benzodiazol-1-yl]piperidine-2,6-dione formic acid]
